Among the data in PubChem BioAssay (Tox21) are activity change, negative = inhibition values, retold here.

Sequences of proteins named here, by UniProt entry; tags and fusion partners are left off. A change or cut given only in a name is not applied to a line headed by its entry.
UniProt P22303: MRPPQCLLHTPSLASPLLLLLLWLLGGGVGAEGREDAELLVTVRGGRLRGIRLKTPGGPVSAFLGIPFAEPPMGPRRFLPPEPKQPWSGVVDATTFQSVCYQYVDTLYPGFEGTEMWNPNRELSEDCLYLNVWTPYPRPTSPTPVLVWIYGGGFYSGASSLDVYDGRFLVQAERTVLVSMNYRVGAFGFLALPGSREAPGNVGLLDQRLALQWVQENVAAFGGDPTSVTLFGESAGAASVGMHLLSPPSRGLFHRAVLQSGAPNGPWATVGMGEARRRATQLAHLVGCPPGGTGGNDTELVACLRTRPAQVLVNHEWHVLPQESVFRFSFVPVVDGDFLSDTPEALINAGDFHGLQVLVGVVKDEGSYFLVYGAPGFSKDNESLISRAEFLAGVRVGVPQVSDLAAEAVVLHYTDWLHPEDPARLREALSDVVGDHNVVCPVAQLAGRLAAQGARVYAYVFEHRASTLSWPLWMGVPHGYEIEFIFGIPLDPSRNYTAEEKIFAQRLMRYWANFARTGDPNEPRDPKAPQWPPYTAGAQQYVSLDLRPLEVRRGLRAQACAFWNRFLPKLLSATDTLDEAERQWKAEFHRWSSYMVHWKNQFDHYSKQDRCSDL

“And” between values parts separate entries of the source, which are not always exact repeats. Equal values may be shown once. Only a part is listed here, and it is no random draw. The source holds several records for some structures; these can differ, active in one and inactive in another. The source made the active and inactive calls. The call rests on the fitted dose curve.
On the % scale 0 is the no-effect control and ±100 the full control effect.

In this assay the target is Acetylcholinesterase (Homo sapiens) (UniProt P22303). The assay can be described thus: Acetylcholinesterase (AChE) small molecule antagonists: enzyme-based qHTS assay (AID 1347397). Further: nearly all actives have a fitted effect of over 55% in size. To be noted: at 115 µM (top of the series) unless noted. An excerpt:
National Center for Advancing Translational Sciences [NCATS]
Division of Preclinical Innovation [DPI]
U.S. Environmental Protection Agency [EPA]
National Institutes of Environmental Health Sciences [NIEHS]
National Toxicology Program [NTP]
U.S. Food and Drug Administration [FDA]
Acetylcholinesterase (AChE) is the primary cholinesterase in the body that hydrolyzes a key neurotransmitter, acetylcholine. Inhibition of AChE activity can lead to neurotoxicity. The known inhibitors include organophosphorous pesticides (OP), chemical warfare agents, drugs, and various phytochemicals.
An enzyme-based assay with the recombinant human AChE and Amplite Colormetric acetylcholinesterase assay kit (AAT Bioquest, Sunnyvale, CA) was used to evaluate the chemicals in the Tox21 10K library that inhibit AChE activity. The assay uses 5, 5-dithiobis-(2-nitrobenzoic acid) (DTNB) to quantify the thiocholine produced from the hydrolysis of acetylthiocholine by AChE.
Tox21 Assay Protocol Summary:
For the enzyme-based AChE assay, recombinant human AChE (50 mU/mL) in 4 uL/well was dispensed into black, clear-bottom 1536-well plates using a Multidrop Combi dispenser (Thermo Scientific, MA). Then, 23 nL of compound or DMSO (vehicle control) was transferred into the assay plates by a Pintool Station (Wako Automation, CA). The plates were incubated for 30 min at room temperature, followed by the addition of 4 uL of colorimetric detection cocktail solution (DTNB, acetylthiocholine) into each well using a Flying Reagent Dispenser (Beckman Coulter, CA) and then 10 min incubation at room temperature.
As for `O=P(Cl)(Oc1ccccc1)Oc1ccccc1`, the activity change, negative = inhibition was inactive: 2.72%.

As for `CCOP(=S)(CC)Sc1ccccc1` (centres undefined), the activity change, negative = inhibition is inactive: 2.18%.

As to `CCCCCCCCCCCCCC[P+](CCCCCC)(CCCCCC)CCCCCC`, the activity change, negative = inhibition was inactive: -10.5%.

As for `CN(C(=O)Cc1ccc(Cl)c(Cl)c1)[C@H]1CC[C@@]2(CCCO2)C[C@@H]1N1CCCC1`, the activity change, negative = inhibition was inactive: 0.415% [at 53 µM].

For the compound `CCNC(C)Cc1ccc2c(c1)OCO2` (centres undefined), the activity change, negative = inhibition is inactive: 4.18%.

As to `COC(=O)Cl`, the activity change, negative = inhibition is inactive: 2.04%.

Regarding `O=[As]c1ccccc1` (centres undefined), the activity change, negative = inhibition is inactive: -1.73%.

Take `O=[P+](Oc1ccccc1)Oc1ccccc1`: the activity change, negative = inhibition is inactive: 1.71%.

With `Cc1cc([N+](=O)[O-])cc([N+](=O)[O-])c1O`, the activity change, negative = inhibition is inactive: 36.5% and inactive: 36.8%.

Take `CN(C(=O)Cc1ccccc1)[C@H]1CC[C@@]2(CCCO2)C[C@@H]1N1CCCC1`: the activity change, negative = inhibition is inactive: -1.76% [at 53 µM].

Regarding `O=C(Cl)Oc1ccccc1`, the activity change, negative = inhibition was inactive: 1.22%.

In the case of `CCCCC(CC)CO[P+](=O)OCC(CC)CCCC` (centres undefined), the activity change, negative = inhibition is inactive: -0.0611%.

For the compound `Cc1cc([N+](=O)[O-])c(O)c([N+](=O)[O-])c1`, the activity change, negative = inhibition is inactive: 10.9%.

Take `CC(C)CCCCCCCOP(OCCCCCCCC(C)C)Oc1ccccc1`: the activity change, negative = inhibition is inactive: 1.31%.

As for `ClP(Cl)c1ccccc1`, the activity change, negative = inhibition is inactive: -3.3%.

As to `O=P(Cl)(Cl)c1ccccc1`, the activity change, negative = inhibition was inactive: -1.29%.

Take `O=[p+]1oc2ccccc2c2ccccc21` (centres undefined): the activity change, negative = inhibition is inactive: 0.129%.

In the case of `CN(C(=O)Cc1cccc2occc12)[C@H]1CC[C@@]2(CCCO2)C[C@@H]1N1CCCC1`, the activity change, negative = inhibition was inactive: -0.132%.

As for `CCC(C)(OOC(C)(C)C)OOC(C)(C)C`, the activity change, negative = inhibition was inactive: 0.157% [at 23.6 µM].

Take `CCCCO[P+](=O)OCCCC`: the activity change, negative = inhibition was inactive: -0.277% and inactive: 1.49%.

For `CCCCOP(OCCCC)OCCCC`, the activity change, negative = inhibition is inactive: -3.92%.

In the case of `CCOC(=O)Cl`, the activity change, negative = inhibition is inactive: 2.86%.

For the compound `O=[N+]([O-])c1ccc([N+](=O)[O-])cc1`, the activity change, negative = inhibition is inactive: 0.132%.

As to `COP(=S)(Cl)OC`, the activity change, negative = inhibition was inactive: 1.21%.
